# Molecular target: full-length ATR (Homo sapiens, UniProt Q13535)
# Protein sequences, listed by entry. Tags and fused reporters are not part of them.
# UniProt Q13535, whole entry: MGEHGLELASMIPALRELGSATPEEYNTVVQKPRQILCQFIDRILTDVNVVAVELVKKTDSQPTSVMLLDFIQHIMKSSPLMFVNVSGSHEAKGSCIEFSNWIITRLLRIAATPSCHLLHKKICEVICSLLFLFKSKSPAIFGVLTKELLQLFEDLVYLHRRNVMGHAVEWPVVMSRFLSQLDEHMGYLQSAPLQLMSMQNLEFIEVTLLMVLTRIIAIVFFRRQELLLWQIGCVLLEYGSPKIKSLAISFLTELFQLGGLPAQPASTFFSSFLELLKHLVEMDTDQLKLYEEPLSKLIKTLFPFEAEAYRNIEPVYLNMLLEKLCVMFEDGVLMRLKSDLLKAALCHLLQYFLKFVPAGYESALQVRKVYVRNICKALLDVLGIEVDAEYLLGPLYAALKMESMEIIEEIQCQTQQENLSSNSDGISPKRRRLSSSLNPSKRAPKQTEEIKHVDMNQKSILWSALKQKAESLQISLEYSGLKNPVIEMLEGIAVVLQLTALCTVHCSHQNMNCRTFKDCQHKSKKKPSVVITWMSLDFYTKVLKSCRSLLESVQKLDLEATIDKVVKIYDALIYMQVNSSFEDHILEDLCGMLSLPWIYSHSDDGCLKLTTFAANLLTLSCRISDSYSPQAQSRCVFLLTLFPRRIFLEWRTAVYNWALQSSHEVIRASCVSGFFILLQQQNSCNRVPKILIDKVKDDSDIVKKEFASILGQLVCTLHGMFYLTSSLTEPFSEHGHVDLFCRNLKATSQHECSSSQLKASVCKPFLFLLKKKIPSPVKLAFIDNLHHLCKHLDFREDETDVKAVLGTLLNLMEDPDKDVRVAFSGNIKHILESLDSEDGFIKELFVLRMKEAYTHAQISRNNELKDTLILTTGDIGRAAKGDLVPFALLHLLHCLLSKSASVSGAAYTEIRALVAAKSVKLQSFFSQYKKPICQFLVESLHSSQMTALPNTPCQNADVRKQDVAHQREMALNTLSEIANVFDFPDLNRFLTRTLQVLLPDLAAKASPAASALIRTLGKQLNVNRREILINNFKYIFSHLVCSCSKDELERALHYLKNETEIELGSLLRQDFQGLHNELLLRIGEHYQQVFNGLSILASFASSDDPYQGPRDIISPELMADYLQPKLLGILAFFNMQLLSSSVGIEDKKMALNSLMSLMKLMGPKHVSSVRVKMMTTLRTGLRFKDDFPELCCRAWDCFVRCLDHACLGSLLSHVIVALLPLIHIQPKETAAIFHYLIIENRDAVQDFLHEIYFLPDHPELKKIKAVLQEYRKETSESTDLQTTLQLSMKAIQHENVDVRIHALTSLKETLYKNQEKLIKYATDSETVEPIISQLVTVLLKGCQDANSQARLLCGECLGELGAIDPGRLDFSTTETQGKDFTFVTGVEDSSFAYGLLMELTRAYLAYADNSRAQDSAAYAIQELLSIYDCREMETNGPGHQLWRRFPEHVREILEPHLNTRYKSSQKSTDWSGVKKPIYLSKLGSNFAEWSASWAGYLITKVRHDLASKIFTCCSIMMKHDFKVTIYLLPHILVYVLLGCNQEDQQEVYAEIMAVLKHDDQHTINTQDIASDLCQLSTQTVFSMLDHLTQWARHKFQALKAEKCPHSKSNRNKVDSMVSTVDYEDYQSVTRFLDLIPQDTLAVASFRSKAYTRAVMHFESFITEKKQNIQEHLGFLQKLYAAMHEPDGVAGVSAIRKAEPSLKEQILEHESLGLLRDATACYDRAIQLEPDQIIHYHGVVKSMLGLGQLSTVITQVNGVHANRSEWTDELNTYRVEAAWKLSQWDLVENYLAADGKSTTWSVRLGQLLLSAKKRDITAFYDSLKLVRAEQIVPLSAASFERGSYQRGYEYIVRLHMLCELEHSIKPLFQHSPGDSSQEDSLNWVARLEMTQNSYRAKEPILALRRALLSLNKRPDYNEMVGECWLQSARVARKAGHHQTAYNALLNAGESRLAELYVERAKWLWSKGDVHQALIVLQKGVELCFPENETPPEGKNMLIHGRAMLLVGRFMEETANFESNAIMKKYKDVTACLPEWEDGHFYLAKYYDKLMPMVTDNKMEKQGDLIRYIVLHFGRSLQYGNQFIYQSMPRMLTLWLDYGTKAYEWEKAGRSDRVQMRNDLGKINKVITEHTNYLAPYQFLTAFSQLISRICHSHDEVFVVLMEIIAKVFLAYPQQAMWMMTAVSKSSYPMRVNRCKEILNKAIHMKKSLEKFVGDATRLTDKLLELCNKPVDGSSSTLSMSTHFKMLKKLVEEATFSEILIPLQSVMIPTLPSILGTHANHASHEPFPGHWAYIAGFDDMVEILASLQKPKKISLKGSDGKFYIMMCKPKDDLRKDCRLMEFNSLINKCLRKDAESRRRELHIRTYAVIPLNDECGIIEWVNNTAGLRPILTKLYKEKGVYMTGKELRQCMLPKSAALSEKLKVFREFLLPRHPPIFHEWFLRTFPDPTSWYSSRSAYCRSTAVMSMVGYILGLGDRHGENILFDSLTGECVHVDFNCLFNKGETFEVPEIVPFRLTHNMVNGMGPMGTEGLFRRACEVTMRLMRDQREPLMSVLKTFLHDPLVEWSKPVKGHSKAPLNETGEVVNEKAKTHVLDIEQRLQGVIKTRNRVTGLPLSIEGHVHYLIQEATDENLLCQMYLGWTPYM
# Test: ATR Inhibition Assay (radioactive-phosphate incorporation)
# Details: read-out: ATR Ki; Ki(app); 5 nM full-length ATR, 10 μM ATP, 800 μM target peptide, 25° C.
row,SMILES,Ki [nM]
1,Nc1ncc(N2CCN(C(=O)OCc3ccccc3)CC2)nc1-c1nc2ccccc2[nH]1,1000 to 10000
2,Nc1ncc(N2CCN(C(=O)c3ccccc3)CC2)nc1-c1nnc(-c2ccccc2)o1,100 to 1000
